Test results taken from patent publication US9586925B2 (priority 2013, dated 2017).

By UniProt entry, the sequences of proteins in these tests, tags left out. Residues count along the entry.
UniProt P06276, 29-602 limits assumed: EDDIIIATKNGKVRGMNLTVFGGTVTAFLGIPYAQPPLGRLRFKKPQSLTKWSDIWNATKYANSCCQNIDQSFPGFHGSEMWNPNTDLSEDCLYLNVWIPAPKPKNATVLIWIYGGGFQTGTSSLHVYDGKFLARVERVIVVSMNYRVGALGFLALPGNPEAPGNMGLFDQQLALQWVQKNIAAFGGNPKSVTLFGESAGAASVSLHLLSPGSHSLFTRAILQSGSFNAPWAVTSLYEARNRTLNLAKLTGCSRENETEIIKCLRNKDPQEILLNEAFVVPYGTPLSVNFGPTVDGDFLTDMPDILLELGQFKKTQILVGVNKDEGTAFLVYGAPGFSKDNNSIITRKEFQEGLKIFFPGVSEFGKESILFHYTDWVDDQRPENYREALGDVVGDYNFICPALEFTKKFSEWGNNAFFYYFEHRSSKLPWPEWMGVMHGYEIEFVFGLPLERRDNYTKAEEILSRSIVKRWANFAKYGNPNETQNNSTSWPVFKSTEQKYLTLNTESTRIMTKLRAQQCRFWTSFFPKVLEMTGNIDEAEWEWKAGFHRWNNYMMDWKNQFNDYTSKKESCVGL

Legend:
[1] = molecular target: BCHE (Homo sapiens (Human), UniProt P06276); details: background statement; cited from earlier work
[2] = molecular target: human recombinant butyrylcholinesterase (Homo sapiens (Human), UniProt P06276); type: biochemical; details: read-out: BCHE Inhibitory Activity IC50

CCN(C)C(=O)Oc1cccc([C@H](C)N(C)C)c1 [Rivastigmine, reference compound]
IC50 [1]: > 10 µM
IC50 [2]: 11 µM
